Reference: IntAct's records for PubMed 21685944

B1: Beta-arrestin-1 (Rattus norvegicus (Rat)), P29066 (parent)
chain: MGDKGTRVFKKASPNGKLTVYLGKRDFVDHIDLVDPVDGVVLVDPEYLKERRVYVTLTCAFRYGREDLDVLGLTFRKDLFVANVQSFPPAPEDKKPLTRLQERLIKKLGEHAYPFTFEIPPNLPCSVTLQPGPEDTGKACGVDYEVKAFCAENLEEKIHKRNSVRLVIRKVQYAPERPGPQPTAETTRQFLMSDKPLHLEASLDKEIYYHGEPISVNVHVTNNTNKTVKKIKISVRQYADICLFNTAQYKCPVAMEEADDTVAPSSTFCKVYTLTPFLANNREKRGLALDGKLKHEDTNLASSTLLREGANREILGIIVSYKVKVKLVVSRGGLLGDLASSDVAVELPFTLMHPKPKEEPPHREVPESETPVDTNLIELDTNDDDIVFEDFARQRLKGMKDDKDEEDDGTGSPHLNNR

Variants of: B1
Settings: with hif1a_human HIF1A

Row | effect of a mutation on the interaction | Variant
1 | decreasing interaction strength | MGDKGTRVFKKASPNGKLTVYLGKRDFVDHIDLVDPVDGVVLVDPEYLKERRVYVTLTCAFRYGREDLDVLGLTFRKDLFVANVQSFPPAPEDKKPLTRLQERLIKKLGEHAYPFTFEIPPNLPCSVTLQPGPEDTGKACGVDYEVKAFCAENLEEKIHKRNSVRLVIRKVQYAPERPGPQPTAETTRQFLMSDKPLHLEASLDKEIYYHGEPISVNVHVTNNTNKTVKKIKISVRQYADICLFNTAQYKCPVAMEEADDTVAPSSTFCKVYTLTPFLANNREKRGLALDGKLKHEDTNLASSTLLREGANREILGIIVSYKVKVKLVVSRGGLLGDLASSDVAVELPFTLMHPKPKEEPPHREVPESETPVDTNLIELDTNDDDIVFEDFARLRLKGMKDDKDEEDDGTGSPHLNNR [Q394L]
